Drawing on PubChem BioAssay (NCI), this text covers growth inhibition for 32 compounds.

The nature of test [1]: NCI Yeast Anticancer Drug Screen. Data for the rad50 strain (AID 155).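 Further: 0% = growth of vehicle-only cultures of the same strain.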 Conditions: S. cerevisiae rad50 strain growth inhibition; at 50.0 µM; active compounds read high.
Test [2] can be described thus: NCI Yeast Anticancer Drug Screen. Data for the mec2-1 strain (AID 157). As to conditions: S. cerevisiae mec2-1 strain, at 50.0 µM, active compounds read high.
The nature of test [3]: NCI Yeast Anticancer Drug Screen. Data for the sgs1 mgt1 strain (AID 161).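 Further: 0% = growth of cultures given vehicle only.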 Conditions: S. cerevisiae sgs1 mgt1 strain, at 50.0 µM, active compounds read high.
A short description of test [4]: NCI Yeast Anticancer Drug Screen. Data for the cln2 rad14 strain (AID 165).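 Further: 0% = growth equal to vehicle treated cultures.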 Conditions: S. cerevisiae cln2 rad14 strain, at 50.0 µM, active compounds read high.
Test [5] in a line: NCI Yeast Anticancer Drug Screen. Data for the bub3 strain (AID 167). Conditions: S. cerevisiae bub3 mutant strain, at 50.0 µM, active compounds read high.
Test [6] is described as follows: NCI Yeast Anticancer Drug Screen. Data for the mlh1 rad18 strain (AID 175). Conditions: S. cerevisiae mlh1 rad18 strain growth inhibition; at 50.0 µM; active compounds read high.

The list shows a part of the results, in another mix than the full data. Some salts or complexes appear as unconnected parts, following the source record. Active and inactive are the calls of the source. No stated cut-off is given here; in the data, active means growth inhibition above about 70%; inactive means the rest.

As for `COc1ccc2c3c1O[C@H]1C4(OC)CCC5(CC4C(C)(C)O)[C@@H](C2)N(C)CC[C@]315` (some centres not stated), the growth inhibition was inactive: -24.1% in test [1]; inactive: -18.6% in test [2]; inactive: -11.9% in test [3]; inactive: 0.4% in test [4]; inactive: -2.7% in test [5]; inactive: -13.2% in test [6].

As for `COc1ccc2c3c1OC1[C@@]4(OC)CCC5(CC4C(C)=O)[C@@H](C2)N(C)CC[C@]315` (some centres not stated), the growth inhibition in test [1] is inactive: 10.8%; in test [2] it was inactive: -4.5%; in test [3], inactive: -7.7%; in test [4] it was inactive: -15.5%; in test [5], inactive: 3.75%; in test [6], inactive: 4.35%.

`COc1ccc2c3c1OC1C4(OC)C=CC5(CC4C(C)=O)[C@@H](C2)N(C)CC[C@]315` (some centres not stated): the growth inhibition in test [1] is inactive: -2.45%; in test [2] it was inactive: -10.9%; in test [3] it was inactive: 3.75%; in test [4], inactive: 3.8%; in test [5], inactive: -22.2%; in test [6], inactive: -2%.

Take `CCCCCCCNCCO.O=[N+]([O-])c1cc([N+](=O)[O-])c(O)c([N+](=O)[O-])c1`: the growth inhibition was inactive: 47.6% in test [1]; inactive: 13.3% in test [2]; inactive: 42.4% in test [3]; inactive: -22.1% in test [4]; inactive: 2.15% in test [5]; inactive: 33.1% in test [6].

For `CCOP(=O)(O)CC.[Cr]`, the growth inhibition in test [1] is inactive: -3.35%; in test [2] it was inactive: -21.4%; in test [3] it was inactive: 0.05%; in test [4], inactive: -49.3%; in test [5], inactive: -19.1%; in test [6], inactive: -6.7%.

`O=C(OCC12COP(=O)(OC1)OC2)C(C(F)(F)F)C(F)(F)F`: the growth inhibition in test [1] is inactive: -3.55%; in test [2], inactive: -28.9%; in test [3], inactive: -18.6%; in test [4], inactive: 16.4%; in test [5] it was inactive: 18.6%; in test [6], inactive: -11.7%.

In the case of `CC1C(C)[N+]1(C)C.O=[N+]([O-])c1cc([N+](=O)[O-])c(S(=O)(=O)[O-])c([N+](=O)[O-])c1`, the growth inhibition in test [1] is inactive: 27.6%; in test [2] it was inactive: 13.7%; in test [3], inactive: 54.9%; in test [4], inactive: 27.4%; in test [5], inactive: 22.9%; in test [6], inactive: 13.2%.

Regarding `CC(C)OP(C)(=O)O.[Nd]`, the growth inhibition in test [1] is inactive: 8.9%; in test [2], inactive: 2.3%; in test [3] it was inactive: 9.7%; in test [4] it was inactive: -18.5%; in test [5], inactive: -12.9%; in test [6] it was inactive: -10.3%.

For `O=C(O)COCN(CN(CN(OCC(=O)O)[N+](=O)[O-])[N+](=O)[O-])[N+](=O)[O-]`, the growth inhibition in test [1] was inactive: 0%; in test [2] it was inactive: 24%; in test [3] it was inactive: 7.25%; in test [4] it was inactive: 13.4%; in test [5], inactive: 9.3%; in test [6], inactive: 18.1%.

As to `CC(O)CNC1CCCCC1.O=[N+]([O-])c1cc([N+](=O)[O-])c(O)c([N+](=O)[O-])c1`, the growth inhibition in test [1] is inactive: 44.9%; in test [2], inactive: 4.6%; in test [3], inactive: 29.6%; in test [4], inactive: -37.6%; in test [5], inactive: 2.5%; in test [6], inactive: 28.3%.

`CN(C)CCC(=O)CCN(C)C.O=[N+]([O-])c1cc([N+](=O)[O-])c(O)c([N+](=O)[O-])c1`: the growth inhibition in test [1] is inactive: 38%; in test [2], inactive: 17.6%; in test [3] it was inactive: 35.6%; in test [4], inactive: 31.1%; in test [5], inactive: 7.55%; in test [6], inactive: 60.5%.

With `N1=C(c2nnc(-c3nn[nH]n3)nn2)NNN1`, the growth inhibition in test [1] is inactive: -7.65%; in test [2], inactive: -31.8%; in test [3], inactive: -7.55%; in test [4] it was inactive: 19.8%; in test [5], inactive: -28.8%; in test [6], inactive: 12.6%.

On to `CCN(CC)CCOC(=O)C(O)(c1ccccc1C)c1ccccc1C`, for which the growth inhibition was inactive: -5.25% in test [1]; inactive: -10.4% in test [2]; inactive: -16.1% in test [3]; inactive: -5.1% in test [4]; inactive: -11.9% in test [5]; inactive: -8.7% in test [6].

For the compound `CCN(CC(C)O)C1CCCCC1.O=[N+]([O-])c1cc([N+](=O)[O-])c(O)c([N+](=O)[O-])c1`, the growth inhibition in test [1] is inactive: 42.9%; in test [2] it was inactive: 13.1%; in test [3], inactive: 36.6%; in test [4], inactive: -3.6%; in test [5], inactive: 1.7%; in test [6], inactive: 18.8%.

Consider `CCCc1c(CC)c(=O)[nH]c2ccccc12`, for which the growth inhibition is inactive: 29.6% in test [1]; inactive: 13.8% in test [2]; inactive: 40.1% in test [3]; inactive: 25.2% in test [4]; inactive: 8.5% in test [5]; inactive: 39.1% in test [6].

Take `O=[N+]([O-])c1cc([N+](=O)[O-])c(O)c([N+](=O)[O-])c1.c1ccc(-c2cc3ccccn3c2)cc1`: the growth inhibition in test [1] is inactive: 3.65%; in test [2] it was inactive: 4.75%; in test [3], inactive: 21.9%; in test [4], inactive: 5.05%; in test [5] it was inactive: 18.1%; in test [6] it was inactive: 19%.

As to `CN([PH+](F)F)[PH+](F)F.CN([PH+](F)F)[PH+](F)F.CN([PH+](F)F)[PH+](F)F.[Ni].[Ni].c1ccc([PH+](c2ccccc2)c2ccccc2)cc1.c1ccc([PH+](c2ccccc2)c2ccccc2)cc1`, the growth inhibition in test [1] was inactive: 9.4%; in test [2], inactive: 4.65%; in test [3], inactive: -1.45%; in test [4] it was inactive: 19%; in test [5], inactive: 1.95%; in test [6] it was inactive: -7.9%.

Turning to `Cc1cccc2c1ccc1ccc3ccccc3c12.O=C1c2cc([N+](=O)[O-])ccc2-c2c1cc([N+](=O)[O-])cc2[N+](=O)[O-]`, the growth inhibition is inactive: 4.3% in test [1]; inactive: -9.8% in test [2]; inactive: 2.35% in test [3]; inactive: -8.65% in test [4]; inactive: 0.25% in test [5]; inactive: 31.7% in test [6].

For `Clc1ccc(-c2ncco2)cc1.O=[N+]([O-])c1cc([N+](=O)[O-])c(O)c([N+](=O)[O-])c1`, the growth inhibition in test [1] is inactive: 12.7%; in test [2] it was inactive: 2.6%; in test [3] it was inactive: 36.2%; in test [4], inactive: 28.8%; in test [5] it was inactive: -5.4%; in test [6] it was inactive: 34.7%.

For the compound `O=[N+]([O-])c1cc([N+](=O)[O-])c(-c2nc(Cl)c3c([N+](=O)[O-])cc([N+](=O)[O-])cc3[n+]2[O-])c([N+](=O)[O-])c1`, the growth inhibition was active: 87% in test [1]; active: 88.5% in test [2]; active: 87.5% in test [3]; active: 86% in test [4]; active: 84% in test [5]; active: 85.2% in test [6].

For the compound `CC(C)OP(C)(=O)O.[Tb]`, the growth inhibition in test [1] was inactive: -5.05%; in test [2] it was inactive: -2.45%; in test [3], inactive: 6.3%; in test [4], inactive: -46.6%; in test [5], inactive: -7%; in test [6], inactive: -8.1%.

In the case of `CN(C)P(=O)(Cl)Cl`, the growth inhibition in test [1] is inactive: 2.7%; in test [2], inactive: -14.4%; in test [3], inactive: -2.4%; in test [4], inactive: -50%; in test [5], inactive: 7.4%; in test [6] it was inactive: -1.45%.

As to `CC(C)OP(C)(=O)O.[Tl]`, the growth inhibition was inactive: 5.85% in test [1]; inactive: -0.05% in test [2]; inactive: 2.35% in test [3]; inactive: -10.2% in test [4]; inactive: -5.85% in test [5]; inactive: 4.65% in test [6].

Consider `CCN(CC)CCOC(=O)C(O)(c1cccc(C)c1)c1csc2ccccc12` (configuration not stated), for which the growth inhibition in test [1] is inactive: 3.65%; in test [2], inactive: 8.35%; in test [3], inactive: -11.7%; in test [4], inactive: -19.9%; in test [5] it was inactive: 5.2%; in test [6] it was inactive: 18.4%.

Regarding `Cc1ccc2c(ccc3ccc4ccccc4c32)c1.O=C1c2cc([N+](=O)[O-])ccc2-c2c1cc([N+](=O)[O-])cc2[N+](=O)[O-]`, the growth inhibition in test [1] was inactive: -0.5%; in test [2] it was inactive: 7.4%; in test [3] it was inactive: 22.9%; in test [4], inactive: -8.25%; in test [5], inactive: 7.35%; in test [6], inactive: 31.3%.

On to `CC(C)CC(CC(C)C)NCCCO.O=[N+]([O-])c1cc([N+](=O)[O-])c(O)c([N+](=O)[O-])c1`, for which the growth inhibition in test [1] was inactive: 26.8%; in test [2], inactive: 0.65%; in test [3] it was inactive: 20.2%; in test [4], inactive: -22.8%; in test [5], inactive: -1.65%; in test [6] it was inactive: -11.7%.

As for `CN(C)Cc1ccccc1.O=[N+]([O-])c1cc([N+](=O)[O-])c(O)c([N+](=O)[O-])c1`, the growth inhibition in test [1] is inactive: 17.2%; in test [2], inactive: -3.55%; in test [3] it was inactive: 2.35%; in test [4], inactive: 6.25%; in test [5], inactive: 17.6%; in test [6], inactive: -9.3%.

Consider `CC(=O)C(C)Sc1ccccn1.O=[N+]([O-])c1cc([N+](=O)[O-])c(O)c([N+](=O)[O-])c1`, for which the growth inhibition in test [1] is inactive: 12.1%; in test [2], inactive: 4.8%; in test [3] it was inactive: 19.4%; in test [4] it was inactive: 5.9%; in test [5], inactive: -8.85%; in test [6], inactive: -13.4%.

In the case of `CCN=C(N)C(N)=NCC.O=[N+]([O-])c1cc([N+](=O)[O-])c(O)c([N+](=O)[O-])c1`, the growth inhibition was inactive: 30.2% in test [1]; inactive: 6.65% in test [2]; inactive: 27.1% in test [3]; inactive: -10.3% in test [4]; inactive: -0.25% in test [5]; inactive: -5.9% in test [6].

On to `CC(C)N1C(C)C1C.O=[N+]([O-])c1cc([N+](=O)[O-])c(S(=O)(=O)O)c([N+](=O)[O-])c1`, for which the growth inhibition is inactive: 39.9% in test [1]; inactive: 19.1% in test [2]; inactive: 58.8% in test [3]; inactive: 39.2% in test [4]; inactive: 28.4% in test [5]; inactive: 18.7% in test [6].

Turning to `CC1CNCCN1.O=[N+]([O-])c1cc([N+](=O)[O-])c(O)c([N+](=O)[O-])c1`, the growth inhibition in test [1] was inactive: 17.4%; in test [2], inactive: -10.6%; in test [3], inactive: 0.35%; in test [4] it was inactive: -39.1%; in test [5], inactive: -8.25%; in test [6], inactive: 5.8%.

On to `COP(C)(=O)OC(N)(N)SC` (configuration not stated), for which the growth inhibition in test [1] is inactive: 5.75%; in test [2], inactive: -14%; in test [3], inactive: 1.85%; in test [4], inactive: -16.8%; in test [5] it was inactive: -5.85%; in test [6] it was inactive: 8.4%.
